This is an account of results in PubChem BioAssay (EPA / NIEHS).

The list shows a part of the results, in another mix than the full data. Results filed as inconclusive are left out. Activity calls are given as the source filed them. The calls were made as follows: active = hit-call score of the fitted dose curve at least 0.9, where 1 is the maximum; inconclusive = response in the unintended direction; inactive = score below 0.9.

The nature of this experiment: ACEA_ER_80hr: ACEA Biosciences xCELLigence Real-Time Cell Analysis on Estrogen Receptor Agonism for Proliferation (AID 2282667). The conditions noted are these: T47D proliferation, impedance (xCELLigence), 80 h. As for the experimental part:
ACEA_ER is a cell-based, single-readout assay that uses T47D, a human breast cell line, with measurements taken at 80 hours after chemical dosing in a 96-well plate, although TO2 (mc0.srcf) used a 384-well plate. Differences in plate size can be ignored given data normalization.ACEA_ER_80hr is one of two assay component(s) measured or calculated from the ACEA_ER assay. It is designed to make measurements of real-time cell-growth kinetics, a form of growth reporter, as detected with electrical impedance signals by Real-Time Cell Electrode Sensor (RT-CES) technology.Data from the assay component ACEA_ER_80hr was analyzed into 1 assay endpoint. This assay endpoint, ACEA_ER_80hr_Positive, was analyzed in the positive analysis fitting direction relative to DMSO as the negative control and baseline of activity. Using a type of growth reporter, measures of the cells for gain-of-signal activity can be used to understand the signaling at the pathway-level as they relate to the gene ESR1. Furthermore, this assay endpoint can be referred to as a primary readout, because this assay has produced multiple assay endpoints where this one serves a signaling function. To generalize the intended target to other relatable targets, this assay endpoint is annotated to the nuclear receptor intended target family, where the subfamily is steroidal.
The xCELLigence system Multi-E-Plate stations were used to measure the time-dependent response to chemicals. Each compound was tested in an eight-point, 1:4 serial dilution series starting at a maximum final concentration of 100 uM. A maximum starting concentration of 0.5% DMSO was present in the 100 uM chemical samples and was diluted along with the test article dilution series. The screen was performed in biological duplicate using two separate, 96-well, E-Plates 96 for each dilution series (n = 2). Positive controls (MG132 and E2) and a negative control (assay media) were tested in quadruplicate on each testing plate. […] Reference compounds were tested with 8 concentrations with 1:5 serial dilutions. All screening was carried out by ACEA Biosciences, Inc. (San Diego, CA). T-47D cells purchased from ATCC were maintained in RPMI1640 media supplemented with 10% characterized fetal bovine serum (FBS). […] Cells were then detached and seeded in E-Plates 96 in assay medium. After overnight monitoring of growth once every hour, compounds were added to […] cells and remained in the medium until the end of the experiment. Cellular responses were then recorded once every 5 min for the first 5 h, and once every hour for an additional 100 h.
Turning to `Cc1ccc([N+](=O)[O-])c([N+](=O)[O-])c1`, the compound was called inactive.
On the same count and under the same terms, to `CN(C)CCCl` belongs “inactive”; to `Cc1ccc([N+](=O)[O-])cc1[N+](=O)[O-]`, “inactive”.
For `COc1ccc([N+](=O)[O-])cc1[N+](=O)[O-]`, the compound was called inactive.
The term AC50 denotes the midpoint of the concentration-response curve, whichever way the signal moves. For the compound `Cc1cccc([N+](=O)[O-])c1[N+](=O)[O-]`, the AC50 was active: 7.66 µM.
In the case of `O=[N+]([O-])c1cccc([N+](=O)[O-])c1`, the call was inactive.
Still for that read-out and setting: next, `Cc1c([N+](=O)[O-])cccc1[N+](=O)[O-]`: “inactive”; `COP(C)(=O)OC`: “inactive”; `CC(C)OP(C)(=O)OC(C)C`: “inactive”.
`O=[N+]([O-])OCC(CO[N+](=O)[O-])(CO[N+](=O)[O-])CO[N+](=O)[O-]`: the AC50 is active: 3.13 µM.
